Data taken from ChEMBL document CHEMBL5338786, “In Silico-Guided Rational Drug Design and Synthesis of Novel 4-(Thiophen-2-yl)butanamides as Potent and Selective TRPV1 Agonists” (J Med Chem, 2023).
Calls of active or inactive are those of the source. The calls are words filed in the database; no cut-off is given here.

Amino acid sequences for entries named in this document (tags omitted).
UniProt Q6RI86, whole entry: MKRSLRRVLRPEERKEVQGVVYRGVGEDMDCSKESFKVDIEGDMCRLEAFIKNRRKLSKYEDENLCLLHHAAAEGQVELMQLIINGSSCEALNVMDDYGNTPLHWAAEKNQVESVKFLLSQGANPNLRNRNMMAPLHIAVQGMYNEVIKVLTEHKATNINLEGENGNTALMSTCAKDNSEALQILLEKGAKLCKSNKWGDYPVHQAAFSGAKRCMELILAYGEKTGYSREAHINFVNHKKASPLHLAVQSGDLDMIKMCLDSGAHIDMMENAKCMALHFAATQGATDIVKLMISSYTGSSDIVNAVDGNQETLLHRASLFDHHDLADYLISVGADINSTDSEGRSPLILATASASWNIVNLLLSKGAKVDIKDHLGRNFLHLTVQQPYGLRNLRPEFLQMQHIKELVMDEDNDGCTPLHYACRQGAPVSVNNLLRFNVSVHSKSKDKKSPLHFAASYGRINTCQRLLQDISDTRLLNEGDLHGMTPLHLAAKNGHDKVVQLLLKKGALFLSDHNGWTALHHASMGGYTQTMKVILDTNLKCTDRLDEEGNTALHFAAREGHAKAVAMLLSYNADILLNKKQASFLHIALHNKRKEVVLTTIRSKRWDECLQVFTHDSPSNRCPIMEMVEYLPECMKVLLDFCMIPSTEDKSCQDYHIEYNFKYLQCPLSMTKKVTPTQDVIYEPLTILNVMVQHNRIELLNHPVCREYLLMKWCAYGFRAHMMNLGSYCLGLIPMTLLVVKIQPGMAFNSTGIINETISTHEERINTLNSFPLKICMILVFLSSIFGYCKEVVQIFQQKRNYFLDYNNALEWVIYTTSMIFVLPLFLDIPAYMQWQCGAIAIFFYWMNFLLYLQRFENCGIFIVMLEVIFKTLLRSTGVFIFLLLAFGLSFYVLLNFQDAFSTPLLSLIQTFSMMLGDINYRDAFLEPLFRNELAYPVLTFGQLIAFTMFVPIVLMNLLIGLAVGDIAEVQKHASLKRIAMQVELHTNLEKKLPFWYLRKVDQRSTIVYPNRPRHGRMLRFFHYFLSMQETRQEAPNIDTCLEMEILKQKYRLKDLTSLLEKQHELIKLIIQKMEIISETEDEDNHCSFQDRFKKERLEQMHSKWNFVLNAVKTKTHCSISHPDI
UniProt Q9ERZ8, whole entry: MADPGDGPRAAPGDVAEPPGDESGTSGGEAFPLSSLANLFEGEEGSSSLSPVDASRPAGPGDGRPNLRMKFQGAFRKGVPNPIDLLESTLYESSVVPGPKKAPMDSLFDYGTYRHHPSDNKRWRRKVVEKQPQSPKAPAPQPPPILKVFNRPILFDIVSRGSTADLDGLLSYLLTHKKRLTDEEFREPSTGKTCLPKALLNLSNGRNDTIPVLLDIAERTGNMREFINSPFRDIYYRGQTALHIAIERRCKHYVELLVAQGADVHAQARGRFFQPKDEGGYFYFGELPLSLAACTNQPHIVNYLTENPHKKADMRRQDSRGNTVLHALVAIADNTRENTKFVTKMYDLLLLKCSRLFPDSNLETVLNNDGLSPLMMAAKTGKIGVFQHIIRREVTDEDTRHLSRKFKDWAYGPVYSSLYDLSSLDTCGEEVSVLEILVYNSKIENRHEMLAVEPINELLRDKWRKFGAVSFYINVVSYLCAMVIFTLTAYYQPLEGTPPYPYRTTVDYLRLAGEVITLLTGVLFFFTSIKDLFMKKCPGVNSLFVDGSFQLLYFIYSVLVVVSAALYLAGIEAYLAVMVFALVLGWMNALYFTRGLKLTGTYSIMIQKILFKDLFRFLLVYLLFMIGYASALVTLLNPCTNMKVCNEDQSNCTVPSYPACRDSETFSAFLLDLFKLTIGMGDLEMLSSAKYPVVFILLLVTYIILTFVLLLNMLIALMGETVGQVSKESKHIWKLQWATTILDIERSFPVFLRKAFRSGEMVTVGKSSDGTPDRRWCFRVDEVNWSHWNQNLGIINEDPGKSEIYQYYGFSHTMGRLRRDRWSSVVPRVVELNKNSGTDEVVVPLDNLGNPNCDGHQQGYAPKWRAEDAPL

Assays:
Type in all cases: cell-based
[1] = molecular target: Transient receptor potential cation channel subfamily A member 1 (Rattus norvegicus) (UniProt Q6RI86); experiment: Agonist activity at rat recombinant TRPA1 expressed in HEK293 cells assessed as increase in intracellular calcium accumulation by measuring efficacy by Fluo4-AM based assay relative to allyl isothiocyanate
[2] = molecular target: Transient receptor potential cation channel subfamily A member 1 (Rattus norvegicus) (UniProt Q6RI86); experiment: Agonist activity at rat recombinant TRPA1 expressed in HEK293 cells assessed as increase in intracellular calcium accumulation by Fluo4-AM based assay
[3] = molecular target: Transient receptor potential cation channel subfamily V member 4 (Rattus norvegicus) (UniProt Q9ERZ8); experiment: Agonist activity at rat recombinant TRPV4 expressed in HEK293 cells assessed as increase in intracellular calcium accumulation by measuring efficacy by Fluo4-AM based assay relative to ionomycin

SMILES | Efficacy [1] [%] | Activity [2] | Efficacy ([1]; filed as agonist) [%] | Efficacy [3] [%]
O=C(CCCc1ccc(I)s1)NCc1ccccc1 | < 10 | inactive |  | 
O=C(CCCc1ccc(-c2ccccc2)s1)NCc1ccccc1 | < 10 | inactive |  | 
COc1cc(CNC(=O)CCCc2ccccc2)ccc1O |  |  | 118 | 
O=C(CCCc1ccc(-c2cccnc2)s1)NCc1ccc(O)cc1 | 31 |  |  | 
COc1cc(CNC(=O)CCCc2ccc(-c3ccccc3)s2)ccc1O |  |  | 147 | < 10
O=C(CCCc1ccc(I)s1)Nc1ccc(O)cc1 |  |  | 134 | 
O=C(CCCc1ccccc1)NCc1ccc(O)cc1 | < 10 | inactive |  | 
O=C(CCCc1ccccc1)Nc1ccc(O)cc1 | < 10 | inactive |  | 
O=C(CCCc1ccc(-c2ccccc2)s1)NCc1ccc(O)cc1 | < 10 | inactive |  | 
O=C(CCCc1cccs1)NCc1ccccc1 | < 10 | inactive |  | 
COc1cc(CNC(=O)CCCc2ccc(-c3cccnc3)s2)ccc1O | < 10 | inactive |  | < 10
O=C(CCCc1ccc(-c2cccnc2)s1)Nc1ccc(O)cc1 | < 10 | inactive |  | 
O=C(CCCc1ccc(-c2ccccc2)s1)Nc1ccc(O)cc1 | < 10 | inactive |  | 

The next lines start with the values.

Efficacy [1] [%] | Activity [2] | Efficacy ([1]; filed as agonist) [%] | Efficacy [3] [%] | SMILES
 |  | 102 |  | O=C(CCCc1ccccc1)NCc1ccc(Cl)c(Cl)c1
 |  | 70.7 |  | O=C(CCCc1ccc(-c2cccnc2)s1)NCc1ccc(Cl)c(Cl)c1
< 10 | inactive |  |  | O=C(CCCc1ccc(I)s1)NCc1ccc(O)cc1
 |  | 53.9 |  | O=C(CCCc1ccc(-c2ccccc2)s1)NCc1ccc(Cl)c(Cl)c1
< 10 | inactive |  |  | COc1ccc(CNC(=O)CCCc2ccc(I)s2)cc1
 |  | 90.5 |  | O=C(CCCc1ccc(I)s1)NCc1ccc(Cl)c(Cl)c1
< 10 | inactive |  | < 10 | COc1cc(CNC(=O)CCCc2ccc(I)s2)ccc1O
